Key:
[1] = test system: ischemic cerebral edema caused by occlusion of middle cerebral artery; assay: Effect on experimental ischemic cerebral edema (MCA occlusion, Tamura model); type: in vivo, male Wistar rats; details: rats
Procedure: Using 41 male Wistar rats weighing 250 to 350 g, model animals of ischemic cerebral edema caused by occlusion of middle cerebral artery (hereinafter referred to as "MCA") were prepared according to the method of Tamura et al. (Journal of Cerebral Blood Flow and Metabolism, 1, 53-69 (1981)).
Peptide (II) obtained in Reference Example 1 was diluted with a physiological saline so that the peptide concentration became 100 μg/10 ml. The solution containing the peptide was continuously administered to eleven rats through the tail vein thereof in an amount of 10 ml per kg of body weight in 20 min so that the total dose of the administered peptide became 100 μg per kg of body weight.
The administration was conducted 6 times according to the following program. The first administration was conducted 30 minutes after the occlusion of MCA. The second administration was conducted in the morning of the next day of the first administration (2nd day). The third administration was conducted after 6 hours from the second administration. The fourth administration was conducted in the morning of the next day of the third administration (3rd day). […]
After one hour from the sixth administration, that is, 3 days after the rats had been subjected to occlusion of MCA, the rats were sacrificed. […] The water content of each of the hemispheres was measured.
The water content of a brain tissue was calculated by the following formula: [formula] wherein: W1 : weight of the cerebral hemisphere (wet basis)
W2 weight of the cerebral hemisphere (dry basis), which is measured after drying the wet cerebral hemisphere at 95° to 100° C. for 3 days.
The water contents calculated were statistically analyzed by the T-test to determine whether or not there is a significant difference between the water content of each of the groups to which peptide (II), peptide (III) and glycerol were individually administered and the water content of the control group to which physiological saline was administered. […]

cynomolgus monkeys = assay: Subacute toxicity in cynomolgus monkeys by intravenous administrations for two weeks and two-week recovery test; type: in vivo; details: i.v. daily for 14 days
Procedure: Peptide (II) having a purity of 98.3% which was obtained in Reference Example 1 was dissolved in a physiological saline to prepare two preparations having peptide (II) concentrations of 0.03 mg/ml and 0.1 mg/ml, respectively. As a control, the physiological saline was used.
Approximately 3 to 6 year-old cynomolgus monkeys of both sexes were purchased from American Charles River Research Primates Ltd., U.S.A. The animals were bred for approximately 6 months and then observed two weeks for the quarantine and the acclimation. From the purchased monkeys, 10 male monkeys (weighing 2.15 to 3.03 kg) and 10 female monkeys (weighing 2.23 to 2.53 kg) which were healthy and in good conditions in respect of both the clinical signs and the body weight gain during the two-week observation period were selected from the purchased monkeys and used for the following experiment.
10 Males and 10 females were divided at random into three groups, namely, a first group to which peptide (II) is to be administered at a dosage of 5 mg/kg of body weight (4 males and 4 females), a second group to which peptide (II) is to be administered at a dosage of 1.5 mg/kg of body weight (2 males and 2 females) and a third group (control) to which physiological saline is to be administered (4 males and 4 females). With respect to the first group and the third group, 2 males and 2 females of each group were subjected to recovery testing after the administration.
Each of the above-prepared two test drug solutions containing peptide (II) at concentrations of 0.03 mg/ml and 0.1 mg/ml, respectively, was individually administered to the monkeys of the two groups at a dosage of 5 ml/kg of body weight. That is, the peptide was administered to the monkeys of the two groups at dosages of 0.15 mg/kg and 0.5 mg/kg of body weight, respectively. To the monkeys of the remaining group, physiological saline was administered as a control at a dosage of 5 ml/kg of body weight. The administration of each of the test drug solutions and the physiological saline was conducted daily for 14 days through the median antebrachial vein of each monkey at an administration rate of 10 ml/min.
The animals were daily observed to examine whether or not any of the animals was dead and/or any remarkable change in clinical signs had occurred. The observed results were recorded.
The amounts of the food supplied and the food remaining were daily measured by means of a balance, and the daily food consumption per animal was calculated.
The individual body weight was daily measured at a time between 2:00 p.m. to 4:00 p.m. by means of a balance.
The external appearance of the animals was observed daily by naked eye. Further, the examination of the bilateral fundus oculi was carried out prior to the administration, two weeks after the administration and two weeks after the withdrawal of the administration.
The electrocardiogram examination was carried out two weeks before the administration, two weeks after the administration and two weeks after withdrawal of the administration.
The urine was collected from each monkey for 18 hours two weeks before the administration, two weeks after the administration and two weeks after withdrawal of the administration, and the volume thereof was measured.
The hematological examination was carried out in the same manner as described above two weeks before the administration, two weeks after the administration and two weeks after the withdrawal of the administration.
The blood biochemical examination was carried out in the same manner as described above two weeks before the administration, two weeks after the administration and two weeks before the withdrawal of the administration.
The animals were exsanguinated under sodium pentobarbial anesthesia on the day after the 14th administration period in the case of the monkeys for acute toxicity test and after the administration withdrawal period in the case of the monkeys for the recovery test. […]

[2] = 3 days after MCA occlusion, peptide 100 μg/kg (glycerol 1 g/kg) tail vein, 6 administrations
[3] = 0.15 and 0.5 mg/kg, two-week recovery

## CC[C@H](C)[C@@H]1NC(=O)[C@H](CCCNC(=N)N)NC(=O)[C@H](CC(=O)O)NC(=O)[C@H]([C@@H](C)CC)NC(=O)[C@H](CCCNC(=N)N)NC(=O)CNC(=O)CNC(=O)[C@H](Cc2ccccc2)NC(=O)[C@@H](NC(=O)[C@H](CO)NC(=O)[C@H](CO)NC(=O)[C@H](CCCNC(=N)N)NC(=O)[C@H](CCCNC(=N)N)NC(=O)[C@H](CC(C)C)NC(=O)[C@@H](N)CO)CSSC[C@@H](C(=O)N[C@@H](CC(N)=O)C(=O)N[C@@H](CO)C(=O)N[C@@H](Cc2ccccc2)C(=O)N[C@@H](CCCNC(=N)N)C(=O)N[C@@H](Cc2ccc(O)cc2)C(=O)O)NC(=O)CNC(=O)[C@H](CC(C)C)NC(=O)CNC(=O)[C@H](CO)NC(=O)[C@H](CCC(N)=O)NC(=O)[C@H](C)NC(=O)CNC1=O [Peptide (II)]
[1]; [2]
  Water content of brain tissue (the mean ± standard error), hemisphere having ischemic part: 79.34 ± 0.15
  Water content of brain tissue (the mean ± standard error), hemisphere having no ischemic part: 78.51 ± 0.15
[1]; MCA occlusion, T-test
  increase in water content of the cerebral hemisphere having ischemic part, compared to physiological saline-administered group: significantly inhibited
Cynomolgus monkeys; [3]
  Blood biochemical examination: No remarkable change
  Change in body weight: No remarkable change
  Clinical signs: No remarkable change
  Clinical signs: death of animals: No dead animal
  Electrocardiogram examination: No remarkable change
  Food consumption: No remarkable change
  Hematological examination: No remarkable change
  Measurement of organ weight: No remarkable change
  Ophthalmic examination: No remarkable change
  Patho-anatomical examination: No remarkable change
  Urinalysis: No remarkable change
Cynomolgus monkeys; highest dosage 0.5 mg/kg
  Histopathological examination: No remarkable change
